The chains behind the UniProt entries cited, without tags or fusion partners.
UniProt P42866, whole entry: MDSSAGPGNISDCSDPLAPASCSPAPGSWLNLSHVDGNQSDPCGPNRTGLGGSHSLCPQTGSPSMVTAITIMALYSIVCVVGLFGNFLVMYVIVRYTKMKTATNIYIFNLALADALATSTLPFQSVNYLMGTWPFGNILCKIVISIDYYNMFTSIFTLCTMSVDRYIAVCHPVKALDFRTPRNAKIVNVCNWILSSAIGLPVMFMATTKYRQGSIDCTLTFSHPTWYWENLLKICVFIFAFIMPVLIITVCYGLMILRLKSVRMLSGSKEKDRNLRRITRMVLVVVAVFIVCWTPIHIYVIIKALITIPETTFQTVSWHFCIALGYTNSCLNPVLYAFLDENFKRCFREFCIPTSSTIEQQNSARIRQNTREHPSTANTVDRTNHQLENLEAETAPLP

In ChEMBL document CHEMBL5360615, “Pharmacological and Physicochemical Properties Optimization for Dual-Target Dopamine D3 (D3R) and μ-Opioid (MOR) Receptor Ligands as Potentially Safer Analgesics” (J Med Chem, 2023):

Tests used:
Format in all cases: functional, cell-based
[1] = target: Mu-type opioid receptor (Mus musculus) (UniProt P42866); assay: Agonist activity at Rluc8 fused mouse MOR transfected in HEK293T cells coexpressing wild type GRK2 assessed as arrestin-3 recruitment at 10 uM using coelenterazine as substrate incubated for 40 mins by BRET assay relative to control
In short: (§1)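 HEK293T cells transiently transfected with BRET sensors (DNA:PEI 1:6), plated into poly-D-lysine plates and assayed 48 h post-transfection. Cells washed and held in D-PBS 30 min at 37 °C. Coelenterazine h 5 μM final; ligands 10 μM to 0.01 nM. Venus/Rluc emission (535/475 nm) read every minute for 10 min, with a further read at 30 min, at 37 °C. […] At least three independent experiments in duplicate.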

[2] = target: Mu-type opioid receptor (Mus musculus) (UniProt P42866); assay: Agonist activity at Rluc8 fused mouse MOR transfected in HEK293T cells assessed as Nb33 recruitment at 10 uM using coelenterazine as substrate incubated for 40 mins by BRET assay relative to control; in short: as §1
[3] = target: Mu-type opioid receptor (Mus musculus) (UniProt P42866); assay: (§2) Agonist activity at SNAP-tagged mouse MOR transfected in HEK293T cells coexpressing wild type Galpha-i2, venus-tagged Gbeta-1 (156 to 239 residues), venus-tagged Ggamma2 (1 to 155 residues) and Rluc8 fused masGRK3ct assessed as Galpha-i2 activation at 10 uM using coelenterazine as substrate incubated for 40 mins by BRET based GPA assay relative to control; settings: filed as agonist; in short: as §1
[4] = target: Mu-type opioid receptor (Mus musculus) (UniProt P42866); assay: as §2, with “Partial agonist” for “Agonist”; settings: filed as partial agonist
[5] = target: Mu-type opioid receptor (Mus musculus) (UniProt P42866); assay: Partial agonist activity at Rluc8 fused mouse MOR transfected in HEK293T cells assessed as Nb33 recruitment at 10 uM using coelenterazine as substrate incubated for 40 mins by BRET assay relative to control
[6] = target: Mu-type opioid receptor (Mus musculus) (UniProt P42866); assay: Partial agonist activity at Rluc8 fused mouse MOR transfected in HEK293T cells coexpressing wild type GRK2 assessed as arrestin-3 recruitment using coelenterazine as substrate incubated for 40 mins by BRET assay
[7] = target: Mu-type opioid receptor (Mus musculus) (UniProt P42866); assay: Partial agonist activity at Rluc8 fused mouse MOR transfected in HEK293T cells coexpressing wild type GRK2 assessed as arrestin-3 recruitment at 10 uM using coelenterazine as substrate incubated for 40 mins by BRET assay relative to control; settings: for Emax: filed as partial agonist; in short: as §1
[8] = target: Mu-type opioid receptor (Mus musculus) (UniProt P42866); assay: Partial agonist activity at Rluc8 fused mouse MOR transfected in HEK293T cells assessed as Nb33 recruitment using coelenterazine as substrate incubated for 40 mins by BRET assay
Mu-type opioid receptor = Mu-type opioid receptor (Mus musculus, UniProt P42866); assay: as §2, with “Partial agonist” for “Agonist”, “activation” for “activation at 10 uM”, “assay” for “assay relative to control”

**Q.** `Clc1cccc(N2CCN(CCC3(c4ccccn4)CCOCC3)CC2)c1Cl` was tested. Which Emax [1] did it give?
**A.** The Emax was 25.1%.

**Q.** What about the Emax [2] of the same compound?
**A.** The Emax was 25.7%.

**Q.** And the Emax [3]?
**A.** The Emax was 107%.

**Q.** `CN(C)C(=O)C(CCN[C@@H]1C[C@H]1c1ccc(Cl)cc1)(c1ccccc1)c1ccccc1` (relative stereo) was tested. Which Emax [4] did it give?
**A.** Its Emax is 106%.

**Q.** And the Activity ([5]; filed as partial agonist)?
**A.** Its Activity is 18.6%.

**Q.** Which Activity [6] does the source give for `CN(C)C(=O)C(CCN1C[C@H](O)C[C@H]1C(=O)NCCCCN1CCN(c2cccc(C(F)(F)F)n2)CC1)(c1ccccc1)c1ccccc1` here?
**A.** Its Activity is “inactive”.

**Q.** And the Activity [7]?
**A.** The Activity was “inactive”.

**Q.** And the Emax [4]?
**A.** The Emax was 76.7%.

**Q.** What about the Emax [5] of the same compound?
**A.** The Emax was “inactive”.

**Q.** And the Activity [8]?
**A.** The Activity was “inactive”.

**Q.** How did the Activity [6] turn out when `CN(C)C(=O)C(CCN1C[C@H](O)C[C@H]1C(=O)NCCCCN1CCN(c2cccc(Cl)c2Cl)CC1)(c1ccccc1)c1ccccc1` was run?
**A.** Its Activity is “inactive”.

**Q.** What about the Activity [7] of the same compound?
**A.** Its Activity is “inactive”.

**Q.** And the Emax [4]?
**A.** The Emax was 63.7%.

**Q.** And the Emax [5]?
**A.** Its Emax is “inactive”.

**Q.** And the Activity [8]?
**A.** The Activity was “inactive”.

**Q.** Which Activity [2] does the source give for `CCC1(CC)CC(OCCCN2CCN(c3cccc(C(F)(F)F)n3)CC2)(c2ccccn2)CCO1` (stereo not given) here?
**A.** Its Activity is 15.5%.

**Q.** What about the EC50 (Mu-type opioid receptor) of the same compound?
**A.** The EC50 was 604 nM.

**Q.** What about the Activity [7] of the same compound?
**A.** The Activity was 33.5%.

**Q.** What about the Emax [4] of the same compound?
**A.** The Emax was 100%.

**Q.** What does the source list for `COc1ccccc1[C@@H]1C[C@H]1NCCC(C(=O)N(C)C)(c1ccccc1)c1ccccc1` (relative stereo)?
**A.** Emax [7]: 47.5%; Emax [4]: 100%

**Q.** What does the source list for `CN(C)C(=O)C(CCN1C[C@H](F)C[C@H]1C(=O)NCCCCN1CCN(c2cccc(C(F)(F)F)n2)CC1)(c1ccccc1)c1ccccc1`?
**A.** Emax [4]: 77.6%; Emax [5]: 15%

**Q.** For `CCCN(CCC(C(=O)N(C)C)(c1ccccc1)c1ccccc1)[C@@H]1C[C@H]1c1ccc(Cl)cc1` (relative stereo), which Emax [7] is on record?
**A.** Its Emax is 43.7%.

**Q.** What about the Emax [4] of the same compound?
**A.** Its Emax is 110%.

Activity calls are given as the source filed them. The calls are words filed in the database; no cut-off is given here.
